Reference: patent US20110053873A1 (published 2011)

Biological target: HSP90α (Homo sapiens, UniProt P07900, I104V)
Assay: Enzyme binding (competition fluorescence polarization) assay with TSD-FP probe

SMILES	IC50 [µM]
COc1cccc(-c2cc(F)ccc2[C@H]2Cc3nc(N)nc(C)c3/C(=N/OC[C@H]3COCCO3)N2)n1 [Compound 40, (R,Z)-2-Amino-7-(4-fluoro-2-(6-methoxypyridin-2-yl)phenyl)-4-methyl-7,8-dihydropyrido[4,3-d]pyrimidin-5(6H)-one O—((R)-1,4-dioxan-2-yl)methyl oxime]	0.01
COc1cccc(-c2cc(F)ccc2[C@H]2Cc3nc(N)nc(C)c3C(NOCCC[C@H](O)CO)=N2)n1 [Compound 75, (R,Z)-2-amino-7-(4-fluoro-2-(6-methoxypyridin-2-yl)phenyl)-4-methyl-7,8-dihydropyrido[4,3-d]pyrimidin-5(6H)-one O—(S)-4,5-dihydroxypentyl oxime]	0.01
